# Assays:
# Amino acid sequences for entries named in this document (tags omitted). Residues count along the entry.
# UniProt P35968, 20-1356: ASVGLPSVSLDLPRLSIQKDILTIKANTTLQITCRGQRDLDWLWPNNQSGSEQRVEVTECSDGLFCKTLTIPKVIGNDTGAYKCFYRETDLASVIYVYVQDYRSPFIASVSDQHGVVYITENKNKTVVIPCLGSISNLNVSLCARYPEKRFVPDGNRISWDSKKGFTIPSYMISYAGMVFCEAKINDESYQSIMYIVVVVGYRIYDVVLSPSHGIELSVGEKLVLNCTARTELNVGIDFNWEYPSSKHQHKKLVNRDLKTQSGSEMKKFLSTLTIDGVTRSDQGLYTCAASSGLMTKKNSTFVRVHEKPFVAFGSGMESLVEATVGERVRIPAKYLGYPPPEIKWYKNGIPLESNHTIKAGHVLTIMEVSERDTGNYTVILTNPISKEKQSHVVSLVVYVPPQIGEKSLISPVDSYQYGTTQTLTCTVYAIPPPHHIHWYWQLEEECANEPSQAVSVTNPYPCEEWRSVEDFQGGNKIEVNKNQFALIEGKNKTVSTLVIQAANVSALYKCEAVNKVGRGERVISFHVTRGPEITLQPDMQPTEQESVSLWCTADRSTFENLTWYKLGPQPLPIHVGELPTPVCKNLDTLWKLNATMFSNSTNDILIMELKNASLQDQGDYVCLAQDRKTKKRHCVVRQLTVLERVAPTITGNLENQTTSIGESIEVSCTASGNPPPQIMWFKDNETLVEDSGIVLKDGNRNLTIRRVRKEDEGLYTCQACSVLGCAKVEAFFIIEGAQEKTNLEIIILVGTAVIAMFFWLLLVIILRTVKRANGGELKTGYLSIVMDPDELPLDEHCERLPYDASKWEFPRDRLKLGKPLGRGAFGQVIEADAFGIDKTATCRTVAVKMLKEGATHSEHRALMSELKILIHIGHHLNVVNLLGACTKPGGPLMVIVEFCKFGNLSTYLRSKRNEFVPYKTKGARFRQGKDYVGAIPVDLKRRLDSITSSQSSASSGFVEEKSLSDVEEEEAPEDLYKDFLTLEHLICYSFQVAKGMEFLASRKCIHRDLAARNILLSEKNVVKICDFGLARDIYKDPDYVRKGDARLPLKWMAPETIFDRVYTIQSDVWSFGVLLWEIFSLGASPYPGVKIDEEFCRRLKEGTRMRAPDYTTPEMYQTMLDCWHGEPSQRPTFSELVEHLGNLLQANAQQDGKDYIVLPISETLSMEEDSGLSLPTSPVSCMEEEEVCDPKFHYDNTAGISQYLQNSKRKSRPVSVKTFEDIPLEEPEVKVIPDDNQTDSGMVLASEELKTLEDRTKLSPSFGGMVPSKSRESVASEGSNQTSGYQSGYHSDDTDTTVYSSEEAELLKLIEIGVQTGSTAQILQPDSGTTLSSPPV
# VEGFR-2 = target: T1, VEGFR-2 (Homo sapiens, UniProt P35968); assay: Phosphotyrosine ELISA cytoblot, VEGFR-2 (U251 cells); type: cell-based; conditions: VEGF stimulation, read-out: VEGFR-2 kinase inhibition
# T1 construct: tumor cell lines naturally expressing high levels of EGFR (A431), VEGFR-2 (U251); endogenous in cells; host or cells: U251
# M6/6 cells = assay: SRB antiproliferative assay, M6/6 (SK-OV-3 expressing Pgp); conditions: Homo sapiens, SK-OV-3, 48 h, read-out: IC50 ± SD in M6/6 cells
IC50 (VEGFR-2),Compound,IC50 (M6/6 cells)
> 300 nM,"COc1ccc2c(ccn2-c2nc(C)nc3oc(C)cc23)c1 [Compound 9, 4-(5-methoxy-1H-indol-1-yl)-2,6-dimethylfuro[2,3-d]pyrimidine]",
,"CC(=O)O[C@H]1C(=O)[C@@]2(C)[C@H]([C@H](OC(=O)c3ccccc3)[C@]3(O)C[C@H](OC(=O)[C@H](O)[C@@H](NC(=O)c4ccccc4)c4ccccc4)C(C)=C1C3(C)C)[C@]1(OC(C)=O)CO[C@@H]1C[C@@H]2O [Paclitaxel, reference compound]",1190 nM
